Literature values as cited in US11291683B2, “Bilayer tablets of B vitamins and process for preparing the same” (Access Business Group International LLC, priority 2016, dated 2022).

Settings: cited from earlier work

Thiamine Mononitrate [Thiamine (B1) mononitrate]
Solubility in Water (Per 100 ml water): 2.7 g per 100 ml water
